Laboratory results taken from patent US10508104B2, “6-hydroxy-5-(phenyl/heteroarylsulfonyl)pyrimidin-4(1H)-one as APJ agonists” (Bristol-Myers Squibb Company, priority 2016, dated 2019).

Sequences of proteins named here, by UniProt entry; tags and fusion partners are left off.
UniProt P35414, whole entry: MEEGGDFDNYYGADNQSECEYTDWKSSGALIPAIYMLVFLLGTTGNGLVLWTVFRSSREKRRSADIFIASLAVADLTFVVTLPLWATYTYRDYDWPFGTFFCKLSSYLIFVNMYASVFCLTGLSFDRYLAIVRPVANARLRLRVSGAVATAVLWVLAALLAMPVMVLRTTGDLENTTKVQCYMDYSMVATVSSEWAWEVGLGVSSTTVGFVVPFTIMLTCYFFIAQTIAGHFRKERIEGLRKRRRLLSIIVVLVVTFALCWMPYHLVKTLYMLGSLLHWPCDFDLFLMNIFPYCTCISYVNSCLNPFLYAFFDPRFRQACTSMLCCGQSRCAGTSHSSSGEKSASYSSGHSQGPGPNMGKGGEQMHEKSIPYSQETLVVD

Target: human APJ receptor (Homo sapiens (Human), UniProt P35414)
Assay: Intracellular cAMP accumulation assay (APJ hcAMP, HTRF)
Details: read-out: Human APJ cAMP EC50 Potency range; HEK293 cells stably expressing human APJ receptor; inhibition of forskolin-mediated cAMP production

`CCCCc1nc(=O)c(S(=O)(=O)c2ccc(-c3ccncc3C)cc2)c(O)n1[C@@H](CC)c1ccccc1F` was tested. Which EC50 did it give?
The EC50 was 0.01 to 10 nM.
